Read-out in assay [1]: Tumor necrosis factor receptor superfamily member 6 (Homo sapiens) (UniProt P25445)
Description: LTEA_HepaRG_FAS: Life Technologies and Expression Analysis (LTEA) Assay for Fas cell surface death receptor (FAS) using HepaRG (AID 2283447). Particulars: actives raise or lower the signal; mRNA level, 48 h. The gist of the method:
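FAS transcript level was measured by TaqMan qRT-PCR against three housekeeping genes after 48 h chemical exposure. Cells were HepaRG, 0.5% DMSO vehicle, with a top concentration of 100 uM and half-log dilutions over eight points, in duplicate.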

Protein sequences, listed by entry. Tags and fused reporters are not part of them.
UniProt P49327, whole entry: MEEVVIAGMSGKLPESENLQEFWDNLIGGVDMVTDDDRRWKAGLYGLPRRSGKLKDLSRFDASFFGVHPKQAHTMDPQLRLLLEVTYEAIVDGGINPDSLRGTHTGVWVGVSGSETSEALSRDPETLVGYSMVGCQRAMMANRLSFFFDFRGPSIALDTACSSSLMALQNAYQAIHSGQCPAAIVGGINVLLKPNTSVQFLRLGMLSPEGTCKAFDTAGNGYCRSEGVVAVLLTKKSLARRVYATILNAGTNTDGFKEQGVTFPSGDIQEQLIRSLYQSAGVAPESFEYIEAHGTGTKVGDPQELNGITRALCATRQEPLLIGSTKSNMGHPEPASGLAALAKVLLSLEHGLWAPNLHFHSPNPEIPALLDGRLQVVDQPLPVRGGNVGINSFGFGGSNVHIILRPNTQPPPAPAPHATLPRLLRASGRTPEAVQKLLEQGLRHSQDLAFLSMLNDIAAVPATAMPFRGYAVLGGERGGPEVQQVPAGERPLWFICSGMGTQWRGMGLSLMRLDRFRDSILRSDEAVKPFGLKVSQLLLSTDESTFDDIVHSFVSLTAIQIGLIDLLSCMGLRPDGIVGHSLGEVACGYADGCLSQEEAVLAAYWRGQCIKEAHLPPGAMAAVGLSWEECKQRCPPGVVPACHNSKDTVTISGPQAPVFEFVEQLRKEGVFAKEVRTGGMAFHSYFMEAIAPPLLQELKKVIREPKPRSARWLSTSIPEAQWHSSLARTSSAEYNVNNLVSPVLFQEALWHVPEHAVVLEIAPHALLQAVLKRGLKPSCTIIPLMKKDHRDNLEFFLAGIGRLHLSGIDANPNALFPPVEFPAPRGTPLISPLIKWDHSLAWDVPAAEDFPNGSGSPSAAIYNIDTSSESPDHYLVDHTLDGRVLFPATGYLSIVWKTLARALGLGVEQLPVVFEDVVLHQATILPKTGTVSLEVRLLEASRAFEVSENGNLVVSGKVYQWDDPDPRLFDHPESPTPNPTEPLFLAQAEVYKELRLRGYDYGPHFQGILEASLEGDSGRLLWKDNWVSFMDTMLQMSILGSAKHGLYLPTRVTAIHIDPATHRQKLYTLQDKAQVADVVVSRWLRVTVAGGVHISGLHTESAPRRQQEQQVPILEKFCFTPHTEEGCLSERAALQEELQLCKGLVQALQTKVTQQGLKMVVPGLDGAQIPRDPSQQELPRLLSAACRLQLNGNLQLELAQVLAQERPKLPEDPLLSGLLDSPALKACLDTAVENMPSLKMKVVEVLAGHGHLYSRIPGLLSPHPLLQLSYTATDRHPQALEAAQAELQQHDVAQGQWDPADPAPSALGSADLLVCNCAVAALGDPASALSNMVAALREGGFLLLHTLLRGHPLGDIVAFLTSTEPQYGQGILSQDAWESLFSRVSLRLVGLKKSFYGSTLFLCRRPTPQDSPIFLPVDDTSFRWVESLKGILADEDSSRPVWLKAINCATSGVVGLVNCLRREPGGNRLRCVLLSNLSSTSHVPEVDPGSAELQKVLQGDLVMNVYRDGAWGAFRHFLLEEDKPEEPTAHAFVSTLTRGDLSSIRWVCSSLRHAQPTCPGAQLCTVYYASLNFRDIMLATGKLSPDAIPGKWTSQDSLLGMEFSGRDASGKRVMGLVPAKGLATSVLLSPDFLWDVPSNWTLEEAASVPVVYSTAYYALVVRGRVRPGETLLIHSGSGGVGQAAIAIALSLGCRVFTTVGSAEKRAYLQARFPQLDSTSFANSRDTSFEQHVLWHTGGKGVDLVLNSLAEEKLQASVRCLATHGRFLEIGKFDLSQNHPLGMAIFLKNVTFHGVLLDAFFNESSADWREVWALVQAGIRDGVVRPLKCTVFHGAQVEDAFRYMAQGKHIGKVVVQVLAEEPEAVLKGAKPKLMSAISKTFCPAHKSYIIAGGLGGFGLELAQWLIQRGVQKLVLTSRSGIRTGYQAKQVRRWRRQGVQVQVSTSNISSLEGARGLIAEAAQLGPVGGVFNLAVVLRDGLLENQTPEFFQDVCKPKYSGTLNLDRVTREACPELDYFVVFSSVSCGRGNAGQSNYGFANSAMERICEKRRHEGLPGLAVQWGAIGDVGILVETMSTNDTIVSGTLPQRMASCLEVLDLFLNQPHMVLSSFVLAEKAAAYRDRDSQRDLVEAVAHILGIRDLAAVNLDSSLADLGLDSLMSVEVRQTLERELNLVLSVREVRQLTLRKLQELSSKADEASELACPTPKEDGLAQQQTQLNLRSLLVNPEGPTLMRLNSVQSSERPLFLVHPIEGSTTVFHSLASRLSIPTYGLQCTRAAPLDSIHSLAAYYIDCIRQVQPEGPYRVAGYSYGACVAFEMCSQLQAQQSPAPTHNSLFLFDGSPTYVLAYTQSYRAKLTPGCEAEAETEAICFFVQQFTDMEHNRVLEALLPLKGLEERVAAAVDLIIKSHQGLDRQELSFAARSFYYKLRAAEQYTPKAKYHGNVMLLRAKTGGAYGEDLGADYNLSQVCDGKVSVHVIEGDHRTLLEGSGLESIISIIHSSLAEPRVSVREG
UniProt Q9UNQ0, whole entry: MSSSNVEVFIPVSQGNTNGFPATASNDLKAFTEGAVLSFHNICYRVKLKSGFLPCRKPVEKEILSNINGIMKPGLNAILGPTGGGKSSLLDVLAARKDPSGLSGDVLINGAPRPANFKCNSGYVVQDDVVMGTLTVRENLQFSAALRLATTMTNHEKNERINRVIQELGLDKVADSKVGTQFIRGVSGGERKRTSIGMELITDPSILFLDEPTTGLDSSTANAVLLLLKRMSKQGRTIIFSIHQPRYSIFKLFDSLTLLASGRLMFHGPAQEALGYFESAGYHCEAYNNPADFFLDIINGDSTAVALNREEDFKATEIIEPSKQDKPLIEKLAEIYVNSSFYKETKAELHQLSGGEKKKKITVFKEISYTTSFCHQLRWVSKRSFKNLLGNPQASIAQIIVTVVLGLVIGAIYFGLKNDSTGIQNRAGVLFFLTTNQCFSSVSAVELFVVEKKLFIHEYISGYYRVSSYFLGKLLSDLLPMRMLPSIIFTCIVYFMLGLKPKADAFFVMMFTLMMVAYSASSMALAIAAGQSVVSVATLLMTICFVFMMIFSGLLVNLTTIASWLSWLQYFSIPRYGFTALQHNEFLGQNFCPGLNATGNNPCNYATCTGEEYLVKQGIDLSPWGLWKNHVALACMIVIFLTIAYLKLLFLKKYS

Read-out in assay [2]: Fatty acid synthase (Homo sapiens) (UniProt P49327)
Put plainly: LTEA_HepaRG_FASN: Life Technologies and Expression Analysis (LTEA) Assay for Fatty Acid Synthase (FASN) using HepaRG (AID 2283448). Particulars: actives raise or lower the signal; mRNA level, 48 h. The gist of the method:
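FASN transcript measured by TaqMan qRT-PCR, normalised to three housekeeping genes, after 48 h chemical exposure of HepaRG cells. Eight-point half-log series from 100 uM in 0.5% DMSO, duplicates; gain or loss fitted against vehicle.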

Read-out in assay [3]: Cyclin D2 (CCND2), CCND2 (gene 894)
Description: LTEA_HepaRG_CCND2: Life Technologies and Expression Analysis (LTEA) Assay for Cyclin D2 (CCND2) using HepaRG (AID 2283449). Particulars: actives raise or lower the signal; mRNA level, 48 h. The gist of the method: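 CCND2 transcript levels, quantified by qRT-PCR and normalised to three housekeeping genes, were fitted bidirectionally against 0.5% DMSO. HepaRG cultures were dosed 48 h in duplicate with an 8-point half-log series up to 100 uM.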

Read-out in assay [4]: Cyclin Dependent Kinase Inhibitor 1A (CDKN1A), CDKN1A (gene 1026)
Put plainly: LTEA_HepaRG_CDKN1A: Life Technologies and Expression Analysis (LTEA) Assay for Cyclin Dependent Kinase Inhibitor 1A (CDKN1A) using HepaRG (AID 2283450). As to conditions: actives raise or lower the signal; mRNA level, 48 h. The gist of the method: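 Differentiated HepaRG cells in serum-free induction medium, exposed 48 h in duplicate to eight half-log concentrations up to 100 uM in 0.5% DMSO. mRNA measured by TaqMan qRT-PCR, normalized to ACTB, GAPDH, POLR2A; bidirectional fit versus DMSO.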

Read-out in assay [5]: Cyclin D1 (CCND1), CCND1 (gene 595)
Description: LTEA_HepaRG_CCND1: Life Technologies and Expression Analysis (LTEA) Assay for Cyclin D1 (CCND1) using HepaRG (AID 2283451). Particulars: actives raise or lower the signal; mRNA level, 48 h. In a few lines:
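Differentiated HepaRG cells exposed 48 h in serum-free induction medium to eight half-log concentrations from 100 uM top, 0.5% DMSO, duplicates. CCND1 mRNA measured by Fluidigm TaqMan qRT-PCR, normalised to ACTB, GAPDH, POLR2A; bidirectional fit.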

Read-out in assay [6]: catalase (CAT), CAT (gene 847)
Description: LTEA_HepaRG_CAT: Life Technologies and Expression Analysis (LTEA) Assay for catalase (CAT) using HepaRG (AID 2283452). Particulars: actives raise or lower the signal; mRNA level, 48 h. In a few lines: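 Expression of CAT was quantified by TaqMan qRT-PCR with ACTB/GAPDH/POLR2A normalization after 48 h chemical exposure of HepaRG. Eight-point half-log series, top 100 uM, in 0.5% DMSO; gain or loss fitted against vehicle.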

Read-out in assay [7]: flavin-containing dimethylaniline monooxygenases 3 (FMO3), FMO3 (gene 2328)
Put plainly: LTEA_HepaRG_FMO3: Life Technologies and Expression Analysis (LTEA) Assay for flavin-containing dimethylaniline monooxygenases 3 (FMO3) using HepaRG (AID 2283453). As to conditions: actives raise or lower the signal; mRNA level, 48 h. In a few lines: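 FMO3 transcript quantified by TaqMan qRT-PCR against three housekeeping genes after 48 h chemical exposure of HepaRG cells. Eight-point half-log series, top 100 uM, 0.5% DMSO vehicle; phenobarbital 1mM induction control; up- or down-regulation fitted.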

Read-out in assay [8]: Cytochrome P450 (CYP1A1), CYP1A1 (gene 1543)
Put plainly: LTEA_HepaRG_CYP1A1: Life Technologies and Expression Analysis (LTEA) Assay for Cytochrome P450 (CYP1A1) using HepaRG (AID 2283454). Particulars: actives raise or lower the signal; mRNA level, 48 h. In a few lines: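 Differentiated human HepaRG cells, after 48 h plating, exposed in duplicate for 48 h in serum-free induction medium to 8 half-log concentrations up to 100 uM in 0.5% DMSO. CYP1A1 mRNA by qRT-PCR, normalized to ACTB/GAPDH/POLR2A; bidirectional fit versus DMSO.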

Read-out in assay [9]: CFLAR gene, CFLAR (gene 8837)
Description: LTEA_HepaRG_CFLAR: Life Technologies and Expression Analysis (LTEA) Assay for CFLAR gene using HepaRG (AID 2283455). Particulars: actives raise or lower the signal; mRNA level, 48 h. The gist of the method: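 Transcript level by qRT-PCR (normalized to ACTB, GAPDH and POLR2A) after 48 h chemical exposure of HepaRG cells, top concentration 100 uM with half-log steps, 0.5% DMSO vehicle, duplicates; fitted bidirectionally against DMSO baseline.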

Read-out in assay [10]: Forkhead box O1 (FOXO1), FOXO1 (gene 2308)
Description: LTEA_HepaRG_FOXO1: Life Technologies and Expression Analysis (LTEA) Assay for Forkhead box O1 (FOXO1) using HepaRG (AID 2283456). As to conditions: actives raise or lower the signal; mRNA level, 48 h. In a few lines: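 FOXO1 transcript quantified by qRT-PCR after 48 h chemical exposure (top 100 uM, half-log steps, 0.5% DMSO) of HepaRG cells, housekeeping-normalized (ACTB/GAPDH/POLR2A). Changes fitted in both directions relative to vehicle.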

Read-out in assay [11]: growth arrest and DNA damage 45 (GADD45A), GADD45A (gene 1647)
Description: LTEA_HepaRG_GADD45A: Life Technologies and Expression Analysis (LTEA) Assay for growth arrest and DNA damage 45 (GADD45A) using HepaRG (AID 2283458). Particulars: actives raise or lower the signal; mRNA level, 48 h. In a few lines: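 GADD45A expression was measured by TaqMan qRT-PCR against three housekeeping genes (ACTB, GAPDH, POLR2A) after 48 h treatment of HepaRG cells. Eight-point half-log series up to 100 uM in 0.5% DMSO, run in duplicate.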

Read-out in assay [12]: Forkhead box O3 (FOXO3), FOXO3 (gene 2309)
Description: LTEA_HepaRG_FOXO3: Life Technologies and Expression Analysis (LTEA) Assay for Forkhead box O3 (FOXO3) using HepaRG (AID 2283459). As to conditions: actives raise or lower the signal; mRNA level, 48 h. The gist of the method:
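FOXO3 transcript measured by qRT-PCR (normalized to ACTB, GAPDH, POLR2A) after 48 h exposure of HepaRG cells in serum-free induction medium. Duplicates, eight half-log concentrations up to 100 uM, 0.5% DMSO; gain or loss fitted against DMSO.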

Read-out in assay [13]: ABC Transporter (ABCB1), ABCB1 (gene 5243)
Put plainly: LTEA_HepaRG_ABCB1: Life Technologies and Expression Analysis (LTEA) Assay for ABC Transporter (ABCB1) using HepaRG (AID 2283460). Particulars: actives raise or lower the signal; mRNA level, 48 h. In a few lines: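 ABCB1 transcript level measured by TaqMan qRT-PCR against three housekeeping genes after 48 h chemical exposure of differentiated HepaRG cells. Top concentration 100 uM, half-log steps, eight points, 0.5% DMSO vehicle; bidirectional fit relative to DMSO.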

Read-out in assay [14]: growth arrest and DNA damage 45 (GADD45B), GADD45B (gene 4616)
Put plainly: LTEA_HepaRG_GADD45B: Life Technologies and Expression Analysis (LTEA) Assay for growth arrest and DNA damage 45 (GADD45B) using HepaRG (AID 2283461). Particulars: actives raise or lower the signal; mRNA level, 48 h. In a few lines:
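Differentiated human HepaRG cells in serum-free induction medium exposed 48 h in duplicate to eight concentrations, top 100 uM, half-log steps, 0.5% DMSO. GADD45B mRNA by TaqMan qRT-PCR, normalized to ACTB, GAPDH, POLR2A; bidirectional fit versus DMSO.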

Read-out in assay [15]: ABC Transporter (ABCC3), ABCC3 (gene 8714)
Description: LTEA_HepaRG_ABCC3: Life Technologies and Expression Analysis (LTEA) Assay for ABC Transporter (ABCC3) using HepaRG (AID 2283462). Particulars: actives raise or lower the signal; mRNA level, 48 h. In a few lines: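 Differentiated human HepaRG cells exposed 48 h in serum-free induction medium, 0.5% DMSO vehicle, 8-point half-log series to 100 uM in duplicate. ABCC3 mRNA by qRT-PCR, normalised to ACTB, GAPDH, POLR2A; bidirectional fit vs DMSO.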

Read-out in assay [16]: ABC Transporter (ABCB11), ABCB11 (gene 8647)
Description: LTEA_HepaRG_ABCB11: Life Technologies and Expression Analysis (LTEA) Assay for ABC Transporter (ABCB11) using HepaRG (AID 2283463). As to conditions: actives raise or lower the signal; mRNA level, 48 h. In a few lines:
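ABCB11 transcript levels quantified by TaqMan qRT-PCR against three housekeeping genes after 48 h chemical exposure of HepaRG cultures. Concentrations up to 100 uM in half-log steps, 0.5% DMSO vehicle; both induction and suppression scored.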

Read-out in assay [17]: ABC Transporter (ABCC2), ABCC2 (gene 1244)
Put plainly: LTEA_HepaRG_ABCC2: Life Technologies and Expression Analysis (LTEA) Assay for ABC Transporter (ABCC2) using HepaRG (AID 2283464). As to conditions: actives raise or lower the signal; mRNA level, 48 h. The gist of the method: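 Differentiated HepaRG cells in serum-free induction medium exposed 48 h to eight half-log concentrations up to 100 uM, 0.5% DMSO, in duplicate. ABCC2 mRNA measured by qRT-PCR (TaqMan, Fluidigm), normalized to ACTB, GAPDH and POLR2A. Fitted in both directions against DMSO.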

Read-out in assay [18]: Broad substrate specificity ATP-binding cassette transporter ABCG2 (Homo sapiens) (UniProt Q9UNQ0)
Description: LTEA_HepaRG_ABCG2: Life Technologies and Expression Analysis (LTEA) Assay for ABC Transporter (ABCG2) using HepaRG (AID 2283465). Particulars: actives raise or lower the signal; mRNA level, 48 h. The gist of the method:
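ABCG2 transcript was quantified by TaqMan qRT-PCR against three housekeeping genes in HepaRG cells. Cells were treated in duplicate for 48 h across an 8-point half-log series up to 100 uM, with 0.5% DMSO vehicle. Gain or loss versus DMSO was fit.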

Assay [19] can be described thus: CEETOX_H295R_PROG: CeeTox H295R High-throughput Steroidogenesis Assay for Progesterone (PROG) (AID 2283442). Particulars: actives raise or lower the signal. The gist of the method: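 H295R adrenal cells prestimulated 48 h with 10 uM forskolin, then exposed 48 h to test chemical in 0.1% DMSO. Progesterone in medium quantified by HPLC-MS/MS after MTBE extraction; viability checked by MTT in same wells.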

Assay [20] is described as follows: CEETOX_H295R_TESTO: CeeTox H295R High-throughput Steroidogenesis Assay for Testosterone (TESTO) (AID 2283457). As to conditions: actives raise or lower the signal. In a few lines: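 H295R adrenal cells, passage ≤10, exposed to chemicals for 48 h. Testosterone in medium measured by MTBE extraction and HPLC-MS/MS against a 7-point standard curve. Bidirectional fit versus DMSO; MTT viability checked in the same wells.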

The record followed here is PubChem BioAssay (EPA / NIEHS).

As a reminder, the AC50 is the concentration at which the activity in the assay is half-maximal.

Only a part is listed here, and it is no random draw. The source made the active and inactive calls. Rule for the calls: active = hit-call score of the fitted dose curve at least 0.9, where 1 is the maximum; inactive = score below 0.9.

Regarding `Cc1ccc([N+](=O)[O-])cc1[N+](=O)[O-]`, the outcome in assay [1], in assay [2], in assay [3], in assay [4], in assay [5] and in assay [6] was inactive. For the same molecule, the molecule was called inactive in [7], in assay [9], in assay [10], in [11], in assay [12] and in [13]. Also, the result in assay [14], in assay [15], in assay [16], in assay [17] and in [18] was inactive. Also, the AC50 in assay [8] is active: 29.1 µM.
`O=[N+]([O-])c1cccc([N+](=O)[O-])c1`: the molecule was called inactive in assay [1], in assay [2], in assay [4], in assay [5], in [6] and in [7]. In addition, the molecule was classed as inactive in assay [9], in assay [10], in assay [11], in assay [12], in [13] and in assay [14]. In addition, the call in assay [15], in [16], in assay [17] and in [18] was inactive. The AC50 in [8] was active: 23.7 µM.
In the case of `Cc1ccc([N+](=O)[O-])c([N+](=O)[O-])c1`, the result in assay [19] and in assay [20] was inactive.
As to `CC(C)OP(C)(=O)OC(C)C`, the molecule was classed as inactive in assay [1], in [2], in [3], in assay [4], in assay [5] and in [6]. In addition, the outcome in assay [7], in [8], in assay [9], in [10], in assay [11] and in assay [12] was inactive. Also, the outcome in assay [13], in [14], in [15], in [16], in [17] and in [18] was inactive.
